# Reference: US8153596B2, “Use of SH2 STAT3/STAT1 peptidomimetics as anticancer drugs” (University of South Florida, priority 2006, dated 2012)
# Chains of the proteins cited; added tags and fusions are not shown. Residues count along the entry.
# UniProt P42224, 2-750 limits assumed: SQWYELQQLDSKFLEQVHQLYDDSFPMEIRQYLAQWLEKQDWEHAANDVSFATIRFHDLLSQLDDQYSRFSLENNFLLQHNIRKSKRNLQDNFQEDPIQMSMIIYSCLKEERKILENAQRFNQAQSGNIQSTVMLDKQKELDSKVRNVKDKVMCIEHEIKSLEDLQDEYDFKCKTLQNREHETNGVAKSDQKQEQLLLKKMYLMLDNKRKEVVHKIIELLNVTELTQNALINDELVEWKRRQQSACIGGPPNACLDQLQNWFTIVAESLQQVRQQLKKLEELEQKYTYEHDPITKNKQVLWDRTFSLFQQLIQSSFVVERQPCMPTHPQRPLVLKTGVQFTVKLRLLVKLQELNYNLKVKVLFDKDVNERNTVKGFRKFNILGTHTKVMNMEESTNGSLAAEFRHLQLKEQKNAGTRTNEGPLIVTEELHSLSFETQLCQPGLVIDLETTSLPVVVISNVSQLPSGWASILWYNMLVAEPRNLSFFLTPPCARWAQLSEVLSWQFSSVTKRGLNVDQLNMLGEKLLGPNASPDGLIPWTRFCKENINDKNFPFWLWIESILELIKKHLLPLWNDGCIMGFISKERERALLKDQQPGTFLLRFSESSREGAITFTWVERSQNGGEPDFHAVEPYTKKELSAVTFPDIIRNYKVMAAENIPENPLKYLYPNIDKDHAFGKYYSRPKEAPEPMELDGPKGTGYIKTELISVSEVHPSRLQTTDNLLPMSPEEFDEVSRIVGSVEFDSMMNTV
# UniProt P40763, 2-770 limits assumed: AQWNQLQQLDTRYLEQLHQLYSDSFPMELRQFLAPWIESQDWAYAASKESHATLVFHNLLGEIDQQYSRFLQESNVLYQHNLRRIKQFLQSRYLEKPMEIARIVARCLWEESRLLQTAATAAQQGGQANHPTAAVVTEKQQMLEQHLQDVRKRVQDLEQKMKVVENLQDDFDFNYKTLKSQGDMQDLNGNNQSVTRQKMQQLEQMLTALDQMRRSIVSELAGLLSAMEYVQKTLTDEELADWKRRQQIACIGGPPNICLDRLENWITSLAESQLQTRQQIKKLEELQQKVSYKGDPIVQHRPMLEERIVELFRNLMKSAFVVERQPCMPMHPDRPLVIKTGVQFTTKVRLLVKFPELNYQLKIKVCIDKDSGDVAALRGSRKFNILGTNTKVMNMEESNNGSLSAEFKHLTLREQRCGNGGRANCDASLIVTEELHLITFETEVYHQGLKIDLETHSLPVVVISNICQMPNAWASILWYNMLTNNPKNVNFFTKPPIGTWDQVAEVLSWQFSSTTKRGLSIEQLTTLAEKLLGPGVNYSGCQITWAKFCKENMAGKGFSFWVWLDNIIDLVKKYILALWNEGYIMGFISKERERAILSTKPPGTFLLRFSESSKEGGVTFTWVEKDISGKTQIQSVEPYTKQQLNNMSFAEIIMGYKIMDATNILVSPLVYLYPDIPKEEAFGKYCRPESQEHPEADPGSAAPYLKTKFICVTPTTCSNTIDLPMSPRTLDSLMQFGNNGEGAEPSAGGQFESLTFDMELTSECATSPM
# What was measured:
# STAT1:STAT1 = STAT1:STAT1 (Homo sapiens, UniProt P42224); experiment: EMSA of STAT1:STAT1 dimer DNA binding, nuclear extracts preincubated with peptidomimetic, radiolabeled hSIE probe; format: biochemical; settings: read-out: STAT1:STAT1 IC50 values, nuclear extracts preincubated 30 min at room temperature, means of three experiments
# STAT3:STAT3 = STAT3:STAT3 (Homo sapiens, UniProt P40763); experiment: EMSA of STAT3:STAT3 dimer DNA binding, nuclear extracts preincubated with peptidomimetic, radiolabeled hSIE probe; format: biochemical; settings: read-out: STAT3:STAT3 IC50 values, nuclear extracts preincubated 30 min at room temperature, means of three experiments
IC50 (STAT1:STAT1),IC50 (STAT3:STAT3),Compound
90 µM,405 µM,CC(C)C[C@H](NC(=O)[C@H](Cc1ccc(OP(=O)(O)O)cc1)NC(=O)c1ccc(C#N)cc1)C(=O)NCc1ccncc1
800 µM,,CC(C)C[C@H](NC(=O)[C@H](Cc1ccc(OP(=O)(O)O)cc1)NC(=O)c1ccc(C#N)cc1)C(=O)NCc1ccccc1
